## Ab-14 light chain CDR variants: yeast mating affinities

From the AlphaSeq antibody data of Li et al. 2023 (doi:10.1038/s41467-023-39022-2), copy in the FLAb collection.

Binding partner: SARS-CoV-2 spike HR2 peptide, sequence PDVDLGDISGINAS.

Parent scFv Ab-14: VH joined to VL by a 15-residue (Gly4Ser)3 linker. Changes lie in the light chain CDRs alone.
VH: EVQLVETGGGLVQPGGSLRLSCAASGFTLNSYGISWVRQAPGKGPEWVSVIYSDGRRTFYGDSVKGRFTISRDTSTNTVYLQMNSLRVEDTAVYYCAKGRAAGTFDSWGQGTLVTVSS
VL: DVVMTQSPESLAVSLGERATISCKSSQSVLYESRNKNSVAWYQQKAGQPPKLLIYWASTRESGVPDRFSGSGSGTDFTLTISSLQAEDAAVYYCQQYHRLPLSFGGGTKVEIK

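Phage display of a naive human antibody library on the peptide gave the parent. Designed CDR sequences, proposed from the first random library and measured here. Several design methods are mixed in this list. In AlphaSeq, yeast of one mating type display the scFv and yeast of the other type display the target. The frequency of each diploid, read from paired DNA barcodes, reflects how well the two displayed proteins bind. The ratio of observed to expected reads was calibrated, replicate by replicate, on BCL2-family standards whose Kd was known from biolayer interferometry. The assay was run in six technical replicates.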

Variants are written as CDR1, CDR2 and CDR3 of the light chain (limits as in the source). Parent: KSSQSVLYESRNKNSVA, WASTRES, QQYHRLPLS.
This list holds designs with at most six substitutions.
Numbers give log10(Kd / nM), so 0 is 1 nM and 3 is 1 µM. Smaller is tighter.
The mean shown is taken over the replicates in which the pair was detected.
Where no diploid with the target was found in that replicate, the entry reads "nd": below detection, most likely a poor binder, though not proof of it.
Order: sorted from the lowest average up, undetected variants last.
The authors' rule: three or more of the six replicates give a measured affinity, fewer mean a poor binder.
The parent sequence was in this pool as ten entries: three were never detected, three once, and four in most replicates, with averages from 0.34 to 2.37.
Background: pairings of all light chain designs with three empty control strains gave a value in 4% of cases (median 2.64, 5th percentile 1.59). Values in that range, when seen in few replicates, are hard to tell from nonspecific mating.
A sequence measured in both rounds can read differently, since the two assays cover different ranges.

CDR-L1,CDR-L2,CDR-L3,"replicates, log10 nM","log10 Kd (nM), mean"
KLEQSQDYESRNKNSVA,NASTRES,QQYHRLPLS,-0.25 / -0.30 / -0.41 / -0.53 / -0.53 / -0.27,-0.38
KLSQSVLMESRNKNNVA,WASTREE,QQYHRLPLS,-0.36 / -0.35 / -0.31 / -0.20 / -0.34 / -0.14,-0.28
KVPQSELYESRNKNSVA,NASTRES,QQYHRLPLS,-0.34 / -0.38 / -0.19 / -0.43 / -0.24 / 0.10,-0.25
KAPQGVLYESRNKNSVA,GASVRES,QQYHRLPLS,-0.11 / -0.19 / -0.26 / -0.22 / -0.19 / 0.03,-0.16
HSSPSVQYESRNKNSVA,NASTREE,QDYHRLPLS,0.09 / -0.10 / -0.04 / -0.24 / -0.03 / -0.07,-0.07
KWSQSVLGESRNKMSVA,NGSTRES,QQYHRLPLS,0.13 / 0.05 / 0.13 / -0.07 / -0.07 / 0.20,0.06
YLSQSVLYESRNKNSVA,NASTRMS,QQYHRLPLS,0.06 / 0.08 / -0.01 / 0.18 / -0.02 / 0.10,0.07
KISQSVLYESRNKNSVA,DASTRES,QAYHRLPLS,0.10 / 0.23 / 0.09 / -0.09 / -0.25 / 0.32,0.07
KSSQSVLYESRNKNNVA,DASTRES,QQYHRLPLS,0.32 / 0.13 / -0.11 / -0.04 / 0.02 / 0.12,0.07
KLSQSHLYESRMKNSVA,NASTRCS,QQYHRLPLS,0.20 / 0.17 / -0.05 / -0.10 / 0.15 / 0.38,0.12
KLSQSWLYESRNKNNVA,HASQRES,QQYHRLPLS,0.40 / 0.08 / -0.08 / 0.03 / 0.33 / 0.19,0.16
HLSDSVLYESRNKNSVA,NASTRES,QQYHRLPLT,0.34 / 0.32 / -0.02 / 0.37 / -0.10 / 0.10,0.17
KQSQSVLMESRNKNSVA,QASTRES,QQYHRLPLS,0.34 / 0.61 / 0.14 / -0.21 / 0.21 / 0.21,0.22
KISQSMLYEPRNWNSVA,NASTRWS,QQYHRLPLS,0.24 / 0.23 / 0.44 / 0.08 / 0.22 / 0.25,0.24
KGSQSVLYESRNKNSVA,EATTRES,QQYHRLPLS,0.48 / 0.25 / 0.39 / 0.30 / -0.06 / 0.57,0.32
KSSISYLGLSRNKNSVA,EASTRES,QQYHRLPLS,0.51 / 0.29 / 0.27 / 0.23 / 0.23 / 0.46,0.33
KSSQSILYESGNKNSVA,HASTRES,QQYHRLPLS,0.47 / 0.37 / 0.37 / 0.19 / 0.26 / 0.48,0.35
KLSQSSLYESRMKNSVA,NASTRLS,QQYHRLPLS,0.73 / 0.42 / 0.48 / 0.40 / 0.36 / 0.46,0.47
KSGQGVLYESRNKNHVA,GASTRES,QQYHRLPLS,0.54 / 0.73 / 0.58 / 0.17 / 0.80 / 0.17,0.50
KLVQSQLYESRNKNSVA,NASQRES,QQYHRLPLS,1.20 / 0.34 / -0.27 / 0.19 / 1.43 / 0.34,0.54
KSSQSVLYESINKNSVA,AASTRES,QQYHRLPLS,nd / 0.36 / 0.36 / 0.44 / 1.16 / 0.57,0.58
KMSQSVLKESRNKNSVA,HASTREF,QQYHRLPLS,0.76 / 0.31 / 0.66 / 0.65 / 0.61 / 0.68,0.61
KSSQSVLDESQNKNSVA,EASTRES,QQYHRLPLS,0.76 / 0.73 / 0.40 / 0.93 / 0.47 / 0.90,0.70
KYSFSDLNESRNSNSVA,EASTRES,QQYHRLPLS,0.78 / 0.77 / 1.26 / 0.95 / 0.54 / 0.70,0.83
KSSQSVLTESRNKDSVA,NASTRES,QQYLRLPLS,0.71 / 0.45 / 1.04 / 0.02 / 0.82 / 2.04,0.85
KSSISYLYESENKESVA,EASQRES,QQYHRLPLS,0.77 / 1.01 / 0.29 / 1.00 / 0.89 / 1.51,0.91
KFMQSQLYESRNKNSVA,NASTRES,QQYHRLPLS,1.01 / 1.21 / 1.31 / 1.07 / 0.28 / 1.17,1.01
HSSQSVLYESRNKNSVA,SASTRES,QQYHRLPLS,nd / nd / 0.59 / 2.03 / 1.47 / 2.16,1.56
KSSQSLLYESRNKNSVA,WGSTRES,GQYARLPLS,3.78 / 1.30 / 2.16 / 1.86 / 1.49 / 1.83,2.07
KSSQSVLYESRNKNSVA,WGSTRNS,QQYHRLPLS,2.27 / 1.87 / 2.01 / 2.01 / 1.26 / 3.21,2.10
KSSQSVEYESRWKNSVA,HASTREY,QQYHRFPLD,1.68 / 3.46 / 2.01 / 1.60 / 2.97 / 1.47,2.20
QSSQSVLYTSRNKNSVA,WASIRES,QQYHRLPLS,nd / nd / nd / nd / 2.25 / nd,2.25
KSSQSVLYESRNKNSVA,DASTRES,YQYKRLPLS,nd / nd / nd / nd / nd / nd,nd
KSSQSVLYESRNKNSVA,WASTRES,QQPERLPLS,nd / nd / nd / nd / nd / nd,nd
KCSQSVTYESRNKNSVA,WASTRES,VQYHRLPLS,nd / nd / nd / nd / nd / nd,nd

Repeated from above, the 4 best binders with a signal in all replicates:

CDR-L1,CDR-L2,CDR-L3,"replicates, log10 nM","log10 Kd (nM), mean"
KLEQSQDYESRNKNSVA,NASTRES,QQYHRLPLS,-0.25 / -0.30 / -0.41 / -0.53 / -0.53 / -0.27,-0.38
KLSQSVLMESRNKNNVA,WASTREE,QQYHRLPLS,-0.36 / -0.35 / -0.31 / -0.20 / -0.34 / -0.14,-0.28
KVPQSELYESRNKNSVA,NASTRES,QQYHRLPLS,-0.34 / -0.38 / -0.19 / -0.43 / -0.24 / 0.10,-0.25
KAPQGVLYESRNKNSVA,GASVRES,QQYHRLPLS,-0.11 / -0.19 / -0.26 / -0.22 / -0.19 / 0.03,-0.16